## scFv variants of Ab-91 (heavy chain) against a SARS-CoV-2 spike peptide

From the AlphaSeq antibody data of Engelhart et al. 2022 (doi:10.1038/s41597-022-01779-4), copy in the FLAb collection.

The target is the same throughout: PDVDLGDISGINAS, from the HR2 region of SARS-CoV-2 spike.

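The starting antibody came from a phage panning campaign against this peptide. Variants in AAYL51 differ from the parent at up to three CDR positions; double and triple changes were sampled at random. In AlphaSeq, yeast of one mating type display the scFv and yeast of the other type display the target. The frequency of each diploid, read from paired DNA barcodes, reflects how well the two displayed proteins bind. The ratio of observed to expected reads was calibrated, replicate by replicate, on BCL2-family standards whose Kd was known from biolayer interferometry. There are three technical replicates.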

Ab-91 is the parent antibody, in scFv form: VL, then a 15-residue (Gly4Ser)3 linker, then VH. The light chain is unchanged in all variants.
VL: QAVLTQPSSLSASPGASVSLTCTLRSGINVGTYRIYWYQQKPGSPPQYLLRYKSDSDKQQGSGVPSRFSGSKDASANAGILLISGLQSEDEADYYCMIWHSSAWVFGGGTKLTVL
VH: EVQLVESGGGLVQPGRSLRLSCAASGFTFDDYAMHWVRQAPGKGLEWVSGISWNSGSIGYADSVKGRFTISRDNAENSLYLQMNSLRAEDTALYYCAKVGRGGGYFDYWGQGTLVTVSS

The parent's heavy chain CDRs are GFTFDDYAMH, GISWNSGSIGYADSVK, VGRGGGYFDY; each variant's own CDRs replace them letter for letter. Values are log10 of the apparent Kd in nM; lower means stronger binding. Replicates are averaged; those with no signal do not enter the mean. Where no diploid with the target was found in that replicate, the entry reads "ND": below detection, most likely a poor binder, though not proof of it. Parent in this assay: reference entry 1.86, copy in this library 0.88.

{"CDR-H1": "IFTFDKYAMH", "CDR-H2": "VISWNSGSIGYADSVK", "CDR-H3": "VGRGGGYFDY", "log10 Kd, replicates": "3.69 5.16 ND", "mean, log10 nM": "4.42", "control signals": "4 of 9 (3.82)"}
{"CDR-H1": "RFTFDDYAMH", "CDR-H2": "GISWNSGIIGYADHVK", "CDR-H3": "VGRGGGYFDY", "log10 Kd, replicates": "ND 5.71 ND", "mean, log10 nM": "5.71", "control signals": "4 of 9 (4.56)"}
{"CDR-H1": "GFTFDDYAMH", "CDR-H2": "GISWNSHSIGYRDCVK", "CDR-H3": "VGRGGGYFDY", "log10 Kd, replicates": "2.42 3.34 ND", "mean, log10 nM": "2.88", "control signals": "0 of 9"}
{"CDR-H1": "GFTFDDYAMH", "CDR-H2": "GISWNSGSIGYADSVK", "CDR-H3": "VGRGGGYFDC", "log10 Kd, replicates": "ND 4.81 ND", "mean, log10 nM": "4.81", "control signals": "1 of 9 (4.58)"}
{"CDR-H1": "GFTFDDYAMH", "CDR-H2": "GISWLSGSIGYMDSVK", "CDR-H3": "VGRGGGYFDY", "log10 Kd, replicates": "ND 6.06 ND", "mean, log10 nM": "6.06", "control signals": "4 of 9 (4.11)"}
{"CDR-H1": "GFTEDDYAMH", "CDR-H2": "GMHWNSGSIGYADSVK", "CDR-H3": "VGRGGGYFDY", "log10 Kd, replicates": "ND ND ND", "mean, log10 nM": "ND", "control signals": "1 of 9 (4.24)"}
{"CDR-H1": "GFTFDDYAMH", "CDR-H2": "GISWNSGSIGGADSVK", "CDR-H3": "VGRGGYYFDN", "log10 Kd, replicates": "5.57 ND ND", "mean, log10 nM": "5.57", "control signals": "4 of 9 (4.89)"}
{"CDR-H1": "GFTREDYAMH", "CDR-H2": "GISWNSGSIGYADSVK", "CDR-H3": "VGRGGGYFDY", "log10 Kd, replicates": "ND ND ND", "mean, log10 nM": "ND", "control signals": "0 of 9"}
{"CDR-H1": "GFVFDDYAMG", "CDR-H2": "GISWNSGSIGYADWVK", "CDR-H3": "VGRGGGYFDY", "log10 Kd, replicates": "5.03 3.48 5.14", "mean, log10 nM": "4.55", "control signals": "3 of 9 (4.58)"}
{"CDR-H1": "GFTFDQYAMH", "CDR-H2": "GISWNSGSIGYADSVS", "CDR-H3": "VGRGGWYFDY", "log10 Kd, replicates": "3.91 ND ND", "mean, log10 nM": "3.91", "control signals": "2 of 9 (4.43)"}
{"CDR-H1": "GFTFDDYHMH", "CDR-H2": "GTSWNSNSIGYADSVK", "CDR-H3": "VGRGGGYFDY", "log10 Kd, replicates": "5.38 4.89 5.00", "mean, log10 nM": "5.09", "control signals": "3 of 9 (4.98)"}
{"CDR-H1": "GFTFDCYAMH", "CDR-H2": "TISWNSGSIGYADSVK", "CDR-H3": "VGKGGGYFDY", "log10 Kd, replicates": "ND 3.37 ND", "mean, log10 nM": "3.37", "control signals": "0 of 9"}
{"CDR-H1": "GFTWWDYAMH", "CDR-H2": "GISTNSGSIGYADSVK", "CDR-H3": "VGRGGGYFDY", "log10 Kd, replicates": "ND 5.69 ND", "mean, log10 nM": "5.69", "control signals": "3 of 9 (4.24)"}
{"CDR-H1": "GFDFEDYAMH", "CDR-H2": "GISWNSGSIGYADSVK", "CDR-H3": "VGRGGGYFWY", "log10 Kd, replicates": "ND ND ND", "mean, log10 nM": "ND", "control signals": "1 of 9 (4.38)"}
{"CDR-H1": "KITFDDYAMH", "CDR-H2": "GISWNSGSIGYADSVK", "CDR-H3": "VGTGGGYFDY", "log10 Kd, replicates": "6.01 4.98 5.23", "mean, log10 nM": "5.41", "control signals": "2 of 9 (5.11)"}
{"CDR-H1": "GFTFDDYAMH", "CDR-H2": "GISWLSASIGYAISVK", "CDR-H3": "VGRGGGYFDY", "log10 Kd, replicates": "ND ND ND", "mean, log10 nM": "ND", "control signals": "0 of 9"}
{"CDR-H1": "GFTIDDYAMH", "CDR-H2": "GISWNSGSIGHADSCK", "CDR-H3": "VGRGGGYFDY", "log10 Kd, replicates": "4.70 5.81 4.35", "mean, log10 nM": "4.95", "control signals": "5 of 9 (4.56)"}
{"CDR-H1": "GFTFDDYAMH", "CDR-H2": "GISMNSGSIGYADFVK", "CDR-H3": "VGRGGGYFDH", "log10 Kd, replicates": "1.16 1.15 0.63", "mean, log10 nM": "0.98", "control signals": "6 of 9 (4.85)"}
{"CDR-H1": "GFTFDDYAMH", "CDR-H2": "GISWNSGSTGYADSWK", "CDR-H3": "VGRAGGYFDY", "log10 Kd, replicates": "5.92 4.26 5.01", "mean, log10 nM": "5.06", "control signals": "6 of 9 (4.70)"}
{"CDR-H1": "WFTVDDYAMH", "CDR-H2": "GISWNSGSIGYADSVK", "CDR-H3": "VGRGGKYFDY", "log10 Kd, replicates": "4.42 ND ND", "mean, log10 nM": "4.42", "control signals": "1 of 9 (3.86)"}
{"CDR-H1": "GFRFDDYAMH", "CDR-H2": "FISWNSGSIGYACSVK", "CDR-H3": "VGRGGGYFDY", "log10 Kd, replicates": "ND ND ND", "mean, log10 nM": "ND", "control signals": "2 of 9 (4.61)"}
{"CDR-H1": "GFTFDDYAMH", "CDR-H2": "FISWNTGSIGYADSVK", "CDR-H3": "VGRSGGYFDY", "log10 Kd, replicates": "ND ND ND", "mean, log10 nM": "ND", "control signals": "2 of 9 (3.88)"}
{"CDR-H1": "GYTFDDYAMQ", "CDR-H2": "GISWNSGSIGYADSVK", "CDR-H3": "VGRGGGYFCY", "log10 Kd, replicates": "4.06 ND ND", "mean, log10 nM": "4.06", "control signals": "2 of 9 (4.53)"}
{"CDR-H1": "GFTQDDYAMR", "CDR-H2": "GISWNSGSIGYADSVK", "CDR-H3": "VGRGGGYFDY", "log10 Kd, replicates": "ND ND ND", "mean, log10 nM": "ND", "control signals": "1 of 9 (3.30)"}
{"CDR-H1": "GFTFDDYAMH", "CDR-H2": "GISWNSGSIQYADSVK", "CDR-H3": "VGRGRDYFDY", "log10 Kd, replicates": "4.40 4.95 ND", "mean, log10 nM": "4.67", "control signals": "8 of 9 (4.74)"}
{"CDR-H1": "GFTFDNYAMH", "CDR-H2": "LISWNSGSIGWADSVK", "CDR-H3": "VGRGGGYFDY", "log10 Kd, replicates": "ND ND ND", "mean, log10 nM": "ND", "control signals": "4 of 9 (4.86)"}
{"CDR-H1": "GDTFDDYAMF", "CDR-H2": "GISWNSGSIGYADSVK", "CDR-H3": "VGRGGGYFEY", "log10 Kd, replicates": "2.37 3.21 2.39", "mean, log10 nM": "2.66", "control signals": "1 of 9 (4.26)"}
{"CDR-H1": "GFTFDDYFMR", "CDR-H2": "GISWNSGSIGYADSVC", "CDR-H3": "VGRGGGYFDY", "log10 Kd, replicates": "ND ND ND", "mean, log10 nM": "ND", "control signals": "0 of 9"}

The opening 2 entries, copied out:

CDR-H1,CDR-H2,CDR-H3,"log10 Kd, replicates","mean, log10 nM",control signals
IFTFDKYAMH,VISWNSGSIGYADSVK,VGRGGGYFDY,3.69 5.16 ND,4.42,4 of 9 (3.82)
RFTFDDYAMH,GISWNSGIIGYADHVK,VGRGGGYFDY,ND 5.71 ND,5.71,4 of 9 (4.56)

As a blank, each scFv also met three strains without target: over library AAYL51, 21% of these pairings were detected, typically at 4.54 and seldom below 3.26. For each scFv, signals with the empty controls are counted beside the result, with their mean in brackets.